Experimental data from patent US20150080559A1, “Compositions Containing, Methods Involving, and Uses of Non-Natural Amino Acid Linked Dolastatin Derivatives” (priority 2011, published 2015).
Like-named read-outs stand apart in the source and are kept apart here.

Legend:
[1] = tested on: BT474; assay: In vitro inhibition of proliferation assay (WST-8), BT474; type: cell-based; conditions: 72 hr, read-out: IC50 Values after 72 hr drug treatment, BT474
Protocol: (§1) At day 1, the cells were seeded. The media was aspirated and the T-225 culture flasks of cells was rinsed with 30 mL PBS −/. PBS was aspirated and 6 mL of 0.25% Trypsin-EDTA was added to each flask. The flasks were incubated at 37C, 5% CO2 for 2-5 minutes. Adherent cells were dislodged by hitting flask and trypsin was neutralized by adding 14 mL culture medium. The cell suspension was mixed and transferred to a 50 mL conical tube. The cells were spun down at 1200 rpm, 5 min, room temperature. The resultant cell pellet was resuspended in 12 mL of culture medium. The cells were counted in a hemacytometer. Cells were seeded at appropriate cell densities into 96-well flat-bottom, clear plates and incubated overnight at 37° C., 5% CO2 to allow cells to attach. Plating volume was 80 uL/well. 80 uL/well of culture medium was utilized as the “no cell” control.
(§2) Cell plating density examples include: • BT474 (high Her2)—20,000 cells/well in F12k/DMEM (50/50), 10% FBS, P/S • MDA-MB-468 (Her2 negative)—6,000 cells/well in F12k/DMEM (50/50), 10% FBS, P/S • HCC1954—5,000 cells/well in RPMI 1640, 10% FBS, P/S • SKOV-3—6,000 cells/well in RPMI 1640, 10% FBS, P/S • HT29—20,000 cells/well in McCoy's 5A, 10% FBS, P/S
(§3) At day 2, the test samples were added to the cells. The test samples were diluted in culture medium to a 9× stock concentration in Column 2 of a round-bottom 96-well plate. 3× serial dilutions were made from Column 2 to Column 11 with a multi-channel pipettor. 10 uL/well of the above samples was added in duplicate to the appropriate wells of the seeded plate. The total volume in the wells was about 90 uL/well. 10 uL/well of culture medium was added to avoid edge effects for sample wells. Media Control wells were included in the inner wells where no sample was added (just 10 uL/well of culture medium) to be used in proliferation calculations. The plates were incubated at 37° C., 5% CO2 for 72 hrs.
(§4) At day 5, proliferation readout occurred. […] The plates were measured for absorbance at OD 450 nm. […]

[2] = tested on: NCI-N87; assay: In vitro inhibition of proliferation assay (WST-8), NCI-N87; type: cell-based; conditions: Data Set I, experiment Sep. 4, 2010; 72 hr; read-out: IC50 Values after 72 hr drug treatment, NCI-N87
Protocol: as §1
(§5) At day 2, the test samples were added to the cells. The test samples were diluted in culture medium to a 9× stock concentration in Column 2 of a round-bottom 96-well plate. 3× serial dilutions were made from Column 2 to Column 11 with a multi-channel pipettor. 10 uL/well of the above samples was added in duplicate to the appropriate wells of the seeded plate. The total volume in the wells was about 90 uL/well. […]
as §4

[3] = tested on: HCC1954; assay: In vitro inhibition of proliferation assay (WST-8), HCC1954; type: cell-based, human; conditions: 72 hr, read-out: IC50 Values after 72 hr drug treatment, HCC1954
Protocol: as §1, §2
(§6) At day 2, the test samples were added to the cells. […]
as §4

[4] = tested on: HT29; assay: In vitro inhibition of proliferation assay (WST-8), HT29; type: cell-based; conditions: Data Set II, experiment Sep. 24, 2010; 72 hr; read-out: IC50 Values after 72 hr drug treatment, HT29
Protocol: as §1, §2, §6, §4

[5] = tested on: MDA-MB-468; assay: In vitro inhibition of proliferation assay (WST-8), MDA-MB-468; type: cell-based; conditions: Data Set II, experiment Oct. 8, 2010; 72 hr; read-out: IC50 Values after 72 hr drug treatment, MDA-MB-468
Protocol: as §1, §2, §6, §4

[6] = tested on: LS513; assay: In vitro inhibition of proliferation assay (WST-8), LS513; type: cell-based; conditions: Data Set I, experiment Sep. 4, 2010; 72 hr; read-out: IC50 Values after 72 hr drug treatment, LS513
Protocol: as §1, §5, §4

[7] = tested on: SKOV-3; assay: In vitro inhibition of proliferation assay (WST-8), SKOV-3; type: cell-based; conditions: 72 hr, read-out: IC50 Values after 72 hr drug treatment, SKOV-3
Protocol: as §1, §2, §3, §4

[8] = tested on: HCC1954 (human breast carcinoma) xenograft; assay: In vivo anti-tumor efficacy in HCC1954 xenograft model; set-up: species or system SCID-bg mice; conditions: day 28
Protocol: HCC1954 (human breast carcinoma) cells were obtained from American Type Culture Collection (Manassas, Va.) and cultured in RPMI+10% FBS, 37° C., 5% CO2 until 80% confluent. Cells were harvested by trypsinization and suspended in PBS at 1×10^8 cells/mL.
Female, SCID-beige mice, 5-8 weeks old, were obtained from Charles River Laboratories. HCC1954 cells (human, breast carcinoma, ATCC, # CRL-2338) were mixed 1:1 with Matrigel (BD Biosciences, Bedford Mass.) and injected subcutaneously into the mice. When tumors reached an average size of 100-200 mm^3, mice were sorted into groups of 9-10 mice each. Caliper measurements were taken twice weekly until the end of the study. To estimate tumor volume, two orthogonal diameters were measured with calipers and the values entered into the formula, (L×W×W)/2=V, (where W=the shortest diameter, L=the longest diameter and V=volume), to obtain an estimated volume. The tumor volume was converted to tumor weight in the Excel data file by assuming 1 mm^3=1 mg. Endpoint was based on a study design of tumor growth inhibition (TGI). When the mean tumor volume of the control group reached approx. 1,000 mm^3 all mice were euthanized or day 28, whichever came first.
Mice were given a single IV injection (tail vein) on day 1 of dosing. Test article was dissolved at 4 mg/mL, 2 mg/mL and 0.66 mg/mL and administered at a dose volume of 5 mL/kg to deliver 20, 10 and 3.3 mg/kg. Test articles were: Herceptin® clinical grade (Trastuzumab), Her2-HS122-NCD1 (Ab:Drug ratio=1:2, non-cleavable linker), and Her2-HS122/LK145-HCD1 (Ab:Drug ratio=1:4, cleavable linker) See FIG. 16.
HCC1954 cells were utilized for this study with 10^7 cells/mouse in Matrigel, SC in the right flank. Mice were SCID-bg female 4-8 weeks. Grouping was performed at day 5 after cell implantation (tumors ˜100 mm^3): sorted into 11 groups of 10 mice each. A single IV dose was given on day 1 of dosing with each compound at 3 dose levels, 20 mg/kg, 10 mg/kg and 3.3 mg/kg. Tumor volume was monitored until the endpoint was reached (1,000 mm^3 or 60 days). (FIG. 10) Paclitaxel 25 mg/kg, IV, qod×5 was employed as the control chemotherapy. The vehicle=50 mM histamine, 0.1 M NaCl, 5% trehalose, pH 6. Herceptin® clinical grade (Trastuzumab), Her2-HS122-NCD1 (non-cleavable linker) and Her2-HS122/LK145-HCD1 (cleavable linker) were tested. (FIGS. 11 and 12)

[9] = tested on: ZR-75-30; assay: In vitro inhibition of proliferation assay (WST-8), ZR-75-30; type: cell-based; conditions: Data Set I, experiment Sep. 4, 2010; 72 hr; read-out: IC50 Values after 72 hr drug treatment, ZR-75-30
Protocol: as §1, §5, §4

[10] = tested on: MDA-MB-175; assay: In vitro inhibition of proliferation assay (WST-8), MDA-MB-175; type: cell-based; conditions: Data Set I, experiment Sep. 13, 2010; 72 hr; read-out: IC50 Values after 72 hr drug treatment, MDA-MB-175
Protocol: as §1, §5, §4

[11] = Data Set I, experiment Sep. 4, 2010
[12] = Data Set I, experiment Sep. 13, 2010
[13] = Data Set II, experiment Oct. 8, 2010

Substance: Herceptin: humanized monoclonal antibody that binds to the domain IV of the extracellular segment of the HER2/neu receptor
- IC50 [1, 11]: > 300 nM
- IC50 [1, 12]: > 300 nM
- IC50 ([1]; Data Set II, experiment Sep. 24, 2010): > 300 nM
- IC50 [2]: > 300 nM
- IC50 [3, 11]: > 300 nM
- IC50 [3, 13]: > 300 nM
- IC50 [4]: > 300 nM
- IC50 [5]: > 300 nM
- IC50 [6]: > 300 nM
- IC50 [7, 11]: > 300 nM
- IC50 [7, 12]: > 300 nM
- IC50 [7, 13]: > 300 nM
- Median Tumor Volume ([8]; 3.3 mg/kg iv qd × 1): 405 mm3
- T/C (Treated/Control) ([8]; 3.3 mg/kg iv qd × 1): 0.833
- Median Tumor Volume ([8]; 10 mg/kg iv qd × 1): 446 mm3
- T/C (Treated/Control) ([8]; 10 mg/kg iv qd × 1): 0.918
- Median Tumor Volume ([8]; 20 mg/kg iv qd × 1): 385 mm3
- T/C (Treated/Control) ([8]; 20 mg/kg iv qd × 1): 0.792
- IC50 [9]: > 300 nM
- IC50 [10]: > 300 nM
